According to US10280188B2, “Fluorine-containing bisphosphonic acid derivative and use thereof” (NAGASAKI UNIVERSITY, priority 2015, dated 2019):

System: human monocyte tumor cell line P31/FUJ
Test: Specific cytotoxicity of Vδ2 positive γδ T cells on compound-treated P31/FUJ (time-resolved fluorescence)
Conditions: γδ T cells from normal adult (3), E/T 0.625:1-40:1, single concentration tested

O=P(O)(O)C(F)(Cn1ccnc1)P(=O)(O)O [ZOLF, 1-fluoro-(2-imidazoyl-1-ethylidene)-1,1-bisphosphonic acid]
concentration at which sensitivity to cytotoxicity activity of Vδ2 positive γδ T cells is promoted: at least 500 μM
